Protein sequences, listed by entry. Tags and fused reporters are not part of them. Residues count along the entry.
UniProt Q06187, 402-655 limits assumed: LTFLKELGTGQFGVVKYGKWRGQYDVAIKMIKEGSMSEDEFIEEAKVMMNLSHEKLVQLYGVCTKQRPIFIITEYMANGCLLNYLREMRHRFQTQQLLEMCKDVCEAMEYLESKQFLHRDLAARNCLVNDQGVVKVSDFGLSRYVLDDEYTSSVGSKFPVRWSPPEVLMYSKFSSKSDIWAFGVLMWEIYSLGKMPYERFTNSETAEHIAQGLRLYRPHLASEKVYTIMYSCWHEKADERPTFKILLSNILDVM

According to paper PMC8662641, “Site-Specific Labeling of Endogenous Proteins Using CoLDR Chemistry” (Journal of the American Chemical Society, 2021):

Assays:
BTK-ibrutinib = BTK-ibrutinib (Homo sapiens, UniProt Q06187); experiment: SPR, ibrutinib-labeled BTK flowed over immobilized 1r; conditions: BTK-ibrutinib over immobilized 1r
BTK-1b = BTK-1b (Homo sapiens, UniProt Q06187); experiment: SPR, 1b-labeled BTK flowed over immobilized 1r
BTK = BTK (Homo sapiens, UniProt Q06187); experiment: SPR, free BTK flowed over immobilized 1r

binding to 1r (BTK-ibrutinib): does not show any binding | Kd (BTK-1b; BTK-1b binding immobilized 1r): 0.018 µM | Kd (BTK-1b; BTK-1b over immobilized 1r): 0.0187 µM | ka (BTK-1b; BTK-1b over immobilized 1r): 176000 M⁻¹ s⁻¹ | kd (BTK-1b; BTK-1b over immobilized 1r): 0.003287 s⁻¹ | Kd (BTK; free BTK binding immobilized 1r): 0.015 µM | Kd (BTK; free BTK over immobilized 1r): 0.0151 µM | ka (BTK; free BTK over immobilized 1r): 90400 M⁻¹ s⁻¹ | kd (BTK; free BTK over immobilized 1r): 0.001361 s⁻¹
SMILES: NCCOCCOCCOCCOCCOCCC(=O)NCCOCCOCCOCCOCCOCCC(=O)N1CCC[C@@H](n2nc(-c3ccc(Oc4ccccc4)cc3)c3c(N)ncnc32)C1
